Assay results published in paper PMC9160101 (Pharmaceutical Research, 2022).

Tested on: HµRel hepatocytes
Experiment: In vitro metabolism in HµRel human hepatic co-cultures
Conditions: quinidine 1 µM, ulotaront 2 µM
Excerpt: HμRel® human hepatic co-cultures were purchased from HμRel® Corporation (North Brunswick, New Jersey).

effect of pre-treatment on ulotaront metabolism: slightly reduced metabolism
Compound: C=C[C@H]1C[N@@]2CC[C@H]1C[C@@H]2[C@@H](O)c1ccnc2ccc(OC)cc12 [quinidine]
